# Apparent affinities of Ab-14 variants for a coronavirus HR2 peptide

Reference: Li et al. 2023, doi:10.1038/s41467-023-39022-2. File: FLAb, binding data.

Target peptide (SARS-CoV-2 spike, HR2 region): PDVDLGDISGINAS

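The parent was found by panning a naive human phage display library on the peptide. Designed CDR sequences, proposed from the first random library and measured here. Group labels follow the data file (Ctrl: baseline library sampled from a position-specific scoring matrix, with some repeated check sequences; Rand: our label for a block that the file lists under HC and that is probably the random mutants of the ten best first-round binders; En: ensemble of fine-tuned language models; GP: Gaussian process model; GPLM: also part of the Gaussian process libraries; HC: hill climbing; Gen: genetic algorithm; Gibbs: Gibbs sampling; a sequence that several methods proposed may carry one label only). In AlphaSeq, yeast of one mating type display the scFv and yeast of the other type display the target. After mating in shaken culture at 30 °C for 16 h, diploids were selected and their barcode pairs sequenced. Each replicate has its own calibration line, from reference interactions of the BCL2 family. The assay was run in six technical replicates.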

Each scFv is VH, the linker GGGGSGGGGSGGGGS, VL, as in the parent Ab-14, and differs from it in the CDRs of the light chain only.
VH: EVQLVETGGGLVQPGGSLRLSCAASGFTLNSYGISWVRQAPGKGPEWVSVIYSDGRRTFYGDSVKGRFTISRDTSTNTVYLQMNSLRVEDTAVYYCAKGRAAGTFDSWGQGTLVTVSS
VL: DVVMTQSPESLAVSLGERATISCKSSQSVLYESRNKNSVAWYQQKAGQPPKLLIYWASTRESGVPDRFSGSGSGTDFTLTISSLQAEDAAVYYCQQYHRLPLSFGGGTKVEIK

Each variant is given by its three light chain CDRs, as the data file delimits them; those of the parent are KSSQSVLYESRNKNSVA, WASTRES, QQYHRLPLS. Scale: log10 of Kd in nM, estimated from mating counts; low values are strong binders. Averages over replicates are reported, and they cover detected replicates only. Where no diploid with the target was found in that replicate, the entry reads "n.d.": below detection, most likely a poor binder, though not proof of it.

CDR-L1,CDR-L2,CDR-L3,group,"replicates, log10 nM",mean log10 Kd (nM)
KLTMITGLEKVQGNNVA,EMETREK,QQYNRLPLA,En_Gen,0.83 / 0.64 / 0.27 / 0.66 / 0.15 / 0.59,0.53
KSSISYLTESRNKNSVA,EASTRES,QQYHRLPLS,GP_HC,-0.18 / -0.12 / -0.26 / -0.11 / -0.33 / -0.13,-0.19
KPSQSVLYEFRNKNSVA,QASTRES,QQHHCLPLS,Ctrl,n.d. / n.d. / n.d. / n.d. / n.d. / n.d.,n.d.
KVSQSVLYESRMKNSVA,DASTRCS,QQYHRLPLI,GP_HC,-0.24 / -0.18 / -0.21 / -0.18 / -0.31 / -0.18,-0.22
KYSQSDEYESRQFNSVA,NASTRMM,QQYHRLPLS,GP_Gibbs,-0.12 / 0.39 / 0.07 / 0.15 / 0.48 / 0.27,0.21
KSSQSVLMQSRNKNSVA,WASTRES,QQYHRLPLS,Ctrl,1.69 / 1.92 / 2.44 / 1.90 / 1.80 / 2.26,2.00
KLRQSTLYESRNQNSVA,KASTRES,QQYHRLPLS,GP_HC,0.50 / 0.40 / 0.52 / 0.34 / 0.31 / 0.34,0.40
KISQGVLYESRNKNSVA,GASTRES,QQYHRLPLS,GP_HC,0.17 / 0.12 / 0.06 / -0.03 / 0.07 / 0.11,0.08
KFSQQMLYEERNSNNVA,HASHRES,QQYHRLPLS,GP_Gibbs,0.90 / 0.47 / 1.13 / 0.74 / 0.38 / 0.91,0.76
KLGDMVHTESRNRNSIA,DMRTRES,QQYYRLPLS,En_HC,-0.49 / -0.38 / -0.46 / -0.13 / -0.37 / 0.18,-0.28
KLGMTLNQLMRKKNNVA,DLVERET,QQYFRLPLS,En_Gen,0.44 / 0.09 / -0.01 / 0.22 / 0.13 / 0.35,0.20
KSLQSVLYESRDKNSVA,NASTRED,QQYHRLPLS,GP_HC,0.13 / 0.29 / -0.01 / 0.02 / -0.04 / 0.34,0.12
LLWQDFYNGRSQANAVA,EGNQLAS,QQYARLPLV,En_Gibbs,0.71 / 0.54 / 0.70 / 0.14 / 0.50 / 0.57,0.53
KSSQSVLYESRNHNSVA,WASTREE,QQYHRLPLS,Ctrl,0.84 / 0.71 / 2.90 / 2.07 / 1.49 / 1.58,1.60
KLSQSQLYESRNPNSVA,NASTRES,QQYHRLPLS,GP_Gen,0.17 / -0.09 / -0.17 / -0.34 / -0.37 / -0.17,-0.16
KSSQSVLTQSFNRNSVA,WASTRES,QQYHTLPLS,Ctrl,1.01 / 1.26 / 1.25 / 1.27 / 1.32 / 1.64,1.29
KQQFSGMMGSRNKNSVA,MASTRES,QQYHRLPLS,GP_Gibbs,n.d. / n.d. / n.d. / n.d. / 3.31 / 2.44,2.88
KSSCGVLYEGRNKNSVA,GASTRES,QQYHRLPLS,GP_HC,0.27 / 0.35 / 0.14 / 0.07 / 0.20 / 0.44,0.24
KLLQVTGYESYVRNSVA,QMSTRAE,QDYHRLPLS,En_HC,0.93 / 0.36 / 0.46 / 0.72 / 0.84 / 0.64,0.66
KLSQQDEYESRNKNSVA,HASCREQ,QQYHRLPLS,GP_Gibbs,0.30 / 0.47 / 0.19 / 0.14 / -0.08 / 0.24,0.21
KTSQSVLYESRNKNSVA,WASTRES,QMYHRLPLS,Ctrl,n.d. / n.d. / n.d. / n.d. / n.d. / n.d.,n.d.
KIGMTLNQLYEKANNVA,DLVEREN,QQYHRLPLS,En_Gen,0.71 / 1.11 / 0.45 / 0.92 / 0.01 / 0.90,0.68
KLDQSTKYESRNQNSVA,WASTRES,QQYHRLPLS,GP_HC,0.49 / 0.18 / 0.12 / 0.28 / -0.02 / -0.22,0.14
HLYQSELYESRMKNSVA,NASTRES,QQYHRLPLS,GP_Gibbs,0.31 / 0.26 / 0.02 / 0.15 / 0.27 / 0.22,0.20
KSSQSFLYESRNKNSVA,GASTRES,QQYHRLCLS,Rand,n.d. / n.d. / n.d. / n.d. / n.d. / n.d.,n.d.
TLVGNIQGGGWAKKSVA,DAVQRVN,QQYYRLPLS,En_Gibbs,-0.12 / 0.02 / -0.11 / -0.39 / -0.06 / 0.42,-0.04
KFSSSVLYESRNKNSVA,GASTRES,QQYHRLPFS,Ctrl,0.76 / 1.04 / 0.96 / 0.82 / 0.64 / 0.87,0.85
KSSISYLEESRNKNSVA,EASTREA,QQYHRLPLS,GP_HC,-0.08 / -0.14 / -0.13 / -0.42 / -0.26 / -0.09,-0.19
KISQSQLYESRNKNSVA,NASTRLS,QQYHRLPLS,GP_Gen,-0.18 / -0.24 / -0.29 / -0.36 / -0.07 / -0.11,-0.21
MLGGNLMHEMMQKNNVA,HMTTRVE,QQYHRLPLI,En_Gen,1.39 / 1.48 / n.d. / 1.36 / 1.91 / 1.44,1.52
KLQQSVMYESRNKNSVA,NASTRLS,QQYHRLPLS,GP_Gen,-0.14 / -0.22 / -0.27 / -0.22 / -0.16 / -0.18,-0.20
MISMEEAPASQQASSIA,HGGTRAE,QQYNRLPLC,En_Gibbs,1.01 / 0.72 / 0.54 / 0.34 / 0.51 / 0.86,0.66
KLSSSWLYESRNKNSVA,NASTRES,QQYHRLPLS,GP_Gen,0.00 / -0.47 / -0.42 / -0.19 / -0.36 / -0.20,-0.27
KFGNMVLTGSYVKNSVA,QSSTREN,QQYHRLPLS,En_HC,0.74 / 0.24 / 0.77 / 0.33 / 0.62 / 0.61,0.55
MVNGIMDHLSKQTNNVA,ETTTRES,QQYDRLPLT,En_Gen,0.87 / 1.32 / 0.89 / 0.99 / 1.33 / 1.51,1.15
HVSETIFAQSKMRNSVA,ENSTRES,QQYDRLPLS,En_HC,n.d. / 1.80 / 0.80 / 1.60 / 2.08 / 1.95,1.65
KISELMNFAQFNKQSIA,EVSTRSK,QSYNRLPLS,En_Gen,1.63 / 1.30 / 1.17 / 2.03 / 1.38 / 1.71,1.54
KLSQLMLYESRNKNSVA,NASTRMS,QDYHRLPLS,GP_Gibbs,0.42 / 0.80 / 0.50 / 0.75 / 0.54 / 0.53,0.59
KSSQSWWYESENKNSVA,WASTRES,QQYHRLPLS,Ctrl,n.d. / n.d. / n.d. / n.d. / n.d. / n.d.,n.d.
KFSQSDLYESRNKNSVA,NASQRES,QQYHRLPLS,GP_Gen,-0.20 / -0.40 / -0.36 / -0.30 / -0.38 / -0.27,-0.32
KLMQSAWLESRNFNAVA,QASQREL,QQYHRLPLS,GP_Gibbs,1.84 / 1.69 / 1.00 / 1.53 / 1.30 / 1.09,1.41
KSSQSVLYESRNKNSVA,WASTRES,QQYHNLPLS,Ctrl,n.d. / n.d. / n.d. / n.d. / 3.07 / n.d.,3.07
KLSQSELYESRNKNSVA,SASTRMS,QQYHRLPLS,GP_Gen,0.49 / 0.36 / 0.30 / 0.13 / 0.08 / 0.22,0.26
KSSQSVLYESLNKNSVA,EASTRES,QQYHRLPLS,Ctrl+GPLM_HC,0.27 / -0.09 / 0.23 / 0.07 / 0.43 / 0.02; 1.94 / 1.78 / 1.90 / n.d. / 3.19 / 2.64,1.13

The closing 5 entries, repeated:

CDR-L1,CDR-L2,CDR-L3,group,"replicates, log10 nM",mean log10 Kd (nM)
KFSQSDLYESRNKNSVA,NASQRES,QQYHRLPLS,GP_Gen,-0.20 / -0.40 / -0.36 / -0.30 / -0.38 / -0.27,-0.32
KLMQSAWLESRNFNAVA,QASQREL,QQYHRLPLS,GP_Gibbs,1.84 / 1.69 / 1.00 / 1.53 / 1.30 / 1.09,1.41
KSSQSVLYESRNKNSVA,WASTRES,QQYHNLPLS,Ctrl,n.d. / n.d. / n.d. / n.d. / 3.07 / n.d.,3.07
KLSQSELYESRNKNSVA,SASTRMS,QQYHRLPLS,GP_Gen,0.49 / 0.36 / 0.30 / 0.13 / 0.08 / 0.22,0.26
KSSQSVLYESLNKNSVA,EASTRES,QQYHRLPLS,Ctrl+GPLM_HC,0.27 / -0.09 / 0.23 / 0.07 / 0.43 / 0.02; 1.94 / 1.78 / 1.90 / n.d. / 3.19 / 2.64,1.13

The authors averaged sequences with at least three values out of six and counted those with two or fewer as poor binders. As a blank, each scFv also met three strains without target: over all light chain designs, 4% of these pairings were detected, typically at 2.64 and seldom below 1.59. Of ten entries with the parent sequence, four were seen in most replicates (averages 0.34 to 2.37), three in one and three in none, so single entries are noisy. Some sequences occur more than once in the pool; their replicates are listed entry by entry, parted by semicolons. The range of this assay differs from that of the first round, and the authors advise against merging the two.